The record followed here is patent US20040014790A1, “Tartrate salt of thiazolidinedione derivative” (priority 2000, published 2004).

The conditions of this data set: water; product of Example 1.

With `CN(CCOc1ccc(CC2SC(=O)NC2=O)cc1)c1ccccn1.O=C(O)C(O)C(O)C(=O)O` (racemic) [DL-Tartrate, 5-[4-[2-(N-methyl-N-(2-pyridyl)amino)ethoxy]benzyl]thiazolidine-2,4-dione DL tartrate], the Solubility was 1000 µg/mL.
